Literature values in patent US7590493B2, “Methods for determining hepatotoxins” (priority 2000, dated 2009).

Settings: after 3 days of drug administration; cited from earlier work

## C#C[C@]1(O)CC[C@H]2[C@@H]3CCc4cc(O)ccc4[C@H]3CC[C@@]21C [17α-ethinylestradiol]
  weight of the liver: increase
